This is an account of results in patent US12319672B2, “Alpha-D-galactopyranoside derivatives” (Idorsia Pharmaceuticals Ltd, priority 2019, dated 2025).

Amino acid sequences for entries named in this document (tags omitted).
UniProt P17931, whole entry: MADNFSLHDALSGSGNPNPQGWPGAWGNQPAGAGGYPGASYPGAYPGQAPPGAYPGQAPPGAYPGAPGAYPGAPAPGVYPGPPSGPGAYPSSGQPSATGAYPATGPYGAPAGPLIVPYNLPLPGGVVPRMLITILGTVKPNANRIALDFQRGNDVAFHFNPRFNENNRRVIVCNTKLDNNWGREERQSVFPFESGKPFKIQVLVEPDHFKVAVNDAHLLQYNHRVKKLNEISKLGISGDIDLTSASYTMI

Structures are written as SMILES.

This assay concerns the target human Gal-3 (hGal-3) (Homo sapiens (Human), UniProt P17931). In words: Competitive binding assay: binding of biotinylated hGal-3 to microplate-adsorbed asialofetuin (ASF). To be noted: read-out: Gal-3 IC50; Activity on hGal-3; mean values of several measurements.
By IC50 is commonly meant the concentration that inhibits the measured activity by half. In the case of `OC[C@H]1O[C@H](CC2CC(c3ccc(F)cc3)=NO2)[C@H](O)[C@@H](n2cc(-c3cc(F)c(F)c(F)c3)nn2)[C@H]1O` (stereo partly shown), the IC50 amounted to 700 nM.

Consider `CO[C@@H]1[C@@H](n2cc(-c3ccc(C)c(F)c3F)nn2)[C@@H](O)[C@@H](CO)O[C@@H]1Cc1cc(C(C)c2ccccc2)no1` (single isomer, unassigned), for which the IC50 worked out at 200 nM.

On to `CO[C@@H]1[C@@H](n2cc(-c3cc(F)c(F)c(F)c3)nn2)[C@@H](O)[C@@H](CO)O[C@@H]1Cc1cc(C2CCS(=O)(=NC(C)C)CC2)no1` (single isomer, unassigned) [1.147], for which the IC50 came out at 170 nM.

In the case of `CO[C@@H]1[C@@H](n2cc(-c3cc(F)c(F)c(F)c3)nn2)[C@@H](O)[C@@H](CO)O[C@@H]1Cc1cc(C2CCS(=O)(=NC(C)C)CC2)no1` (single isomer, unassigned) [1.148], the IC50 amounted to 59 nM.
